Assay results as given in patent publication US10660971B2, “Compounds for targeted immunotherapy” (priority 2012, dated 2020).

Experiments:
[1] = tested on: patient derived gastric tumor; experiment: Survival in patient derived gastric tumor (PDX) xenograft model; format: in vivo, BALB/c nu/nu nude mice; details: 10 mg/kg intravenously, weekly for a period of 45 days; mice bearing subcutaneous patient derived gastric tumor; FIG. 4C
From the text: (§1) For development of patient-derived gastric carcinoma xenograft (PDX) mouse models, female Balb/c nude mice (from SLAC, Shanghai, China) of 6-8 weeks old were used for tumor fragment implantation. Animals were fed with normal nude mice diet and housed in SPF animal facility in accordance with the Guide for Care and Use of Laboratory Animals and regulations of the Institutional Animal Care and Use Committee. Patent STO #69 gastric tumor fragments of about 15-30 mm^3 in size were implanted (s.c.) into right flanks of Balb/c nude mice.
(§2) Drugs were administered by i.v. route with 5˜20 mg/kg of antibody or 20 mg/kg of Tarceva or reference drug, QWKx3. Tumors were measured once a week by caliper to determine its subcutaneous growth. Tumors were measured twice a week in two dimensions with calipers. Tumor volume was calculated using following formula: tumor volume=(length×width2)×0.5. Average tumor volumes or body weights were plotted using graph program Prism 5 (GraphPad). An endpoint for efficacy study was set at 30-45 days post-first treatment or when a tumor size reached above 2000 mm3, whichever came first. If a mouse lose more than 20% of body weight or is very sick and cannot get to adequate food or water, it will be removed from the study and euthanized. Tumors were collected from mice at the end point, half frozen in LN2 and half fixed in formalin for preparing FFPE tissues.

[2] = Body weight variations of mice in PDX gastric tumor model; format: in vivo, BALB/c nu/nu nude mice; details: 10 mg/kg intravenously, weekly for a period of 45 days, FIG. 4B
From the text: as §1, §2

Trastuzumab MC-vc-TLRL
Survival curves of treatment and control groups [1]: substantial prolongation | Body weight variations of the mice during and after therapy [2]: No detectable weight loss

Trastuzumab: humanized monoclonal antibody that acts on human epidermal growth factor receptor extracellular domain of Her2
Survival curves of treatment and control groups [1]: substantial prolongation | Body weight variations of the mice during and after therapy [2]: No detectable weight loss
